Source: BindingDB's records for doi:10.1021/acs.jmedchem.7b00707 (Research Triangle Institute, 2017)

Sequences of proteins named here, by UniProt entry; tags and fusion partners are left off.
UniProt P21554, whole entry: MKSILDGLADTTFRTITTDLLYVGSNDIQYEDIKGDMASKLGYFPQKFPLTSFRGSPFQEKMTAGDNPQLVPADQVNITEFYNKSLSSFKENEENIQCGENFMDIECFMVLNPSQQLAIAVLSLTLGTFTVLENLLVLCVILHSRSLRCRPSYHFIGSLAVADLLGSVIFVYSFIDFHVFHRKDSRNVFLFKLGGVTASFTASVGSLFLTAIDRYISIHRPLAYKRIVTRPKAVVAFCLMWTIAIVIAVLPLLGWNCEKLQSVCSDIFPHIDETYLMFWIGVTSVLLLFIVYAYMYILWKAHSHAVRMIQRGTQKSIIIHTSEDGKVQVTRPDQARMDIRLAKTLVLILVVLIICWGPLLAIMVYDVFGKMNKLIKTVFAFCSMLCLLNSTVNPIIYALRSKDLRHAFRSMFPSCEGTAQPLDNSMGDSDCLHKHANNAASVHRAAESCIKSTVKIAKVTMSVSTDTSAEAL

Target: Cannabinoid receptor 1 (Homo sapiens, UniProt P21554)

O=C(Nc1ccc(Cl)cc1)Nc1cccc(-c2cccc(N3CCCC3)n2)c1 gave an IC50 of 50 nM.
